Experimental data published in patent US20130084328A1, “METHYLATED CODING AND NON-CODING RNA GENES AS DIAGNOSTIC AND THERAPEUTIC TOOLS FOR HUMAN MELANOMA” (Sanford-Burnham Medical Research Institute, priority 2011, published 2013).

System: WM1552C cells
Test: wound-healing migration assay, miR-34b
Type: cell-based, human
Conditions: WM1552C/34b
Description: Cell monolayers were then gently scratched with a pipette tip across the entire diameter of the dish and extensively rinsed with medium to remove all cellular debris. The surface area of the denuded surface was quantified immediately after wounding and again every 20 minutes for 24 hrs on the Nikon Bio Station IM. The extent of wound closure was determined by calculating the ratio of the surface area between the remaining wound edges for each time point to the surface area of the initial wound. […] The surface area was calculated using NIS Elements software and performed in triplicate.

“miR-34b: nucleic acid exemplified by SEQ ID NO:2 (CAAUCACUAACUCCACUGCCAU); stably expressed in WM1552C from pcDNA4/H1-3TetR/miR-34b (WM1552C/34b) (CAAUCACUAACUCCACUGCCAU)” was tested, and the “distance migrated relative to WM1552C/VO cells” value (by the end of 8 hrs) was “less than half of the distance” and the “time to close the scratch” value (WM1552C/VO 16 hrs) was 24 h.
